High-throughput results as filed in PubChem BioAssay.
uPA surface inh: cell surface uPA generation inhibition; hit rate 0.31% among 330,000; Potency, µM (highest dose often 38.3 µM), for the others: at the highest dose activity change, negative = inhibition, usual class: inhibitors; cell surface uPA generation assay, qHTS; active = well fitted inhibition curve with a large enough effect; inconclusive = small, poorly fitted or top-dose-only effect; inactive = no such curve, though single readings can be large or run the other way; tested in mouse RAW 264.7 cells; also: potency is read from the fitted curve at half-maximal effect; % is scaled to controls: 0 for no effect and ±100 for the full control effect; nearly all actives have a fitted effect of over 55% in size
TDP1 cell noCPT: qHTS for Inhibitors of human tyrosyl-DNA phosphodiesterase 1 (TDP1): qHTS in cells in absence of CPT; DT40 Tdp1-/- hTDP1 cells, no CPT, ATP luminescence, 48 h; Potency, µM (doses to about 46.2 µM), for inactives: at the highest dose activity change, negative = growth inhibition, actives largely listed as inhibitors; hit rate 15% among 420,000; also: potency is read from the fitted curve at half-maximal effect; % is scaled to controls: 0 for no effect and ±100 for the full control effect; nearly all actives have a fitted effect of over 55% in size
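Cells were dispensed at 400 per well, compounds added by pin tool, plates incubated ≥48 hr at 37 °C, then CellTiter-Glo added for 30 min at room temperature before luminescence reading. Line: DT40 Tdp1-/- complemented with hTDP1; camptothecin omitted.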
TDP1 inh: blocks human tyrosyl-DNA phosphodiesterase 1; recombinant TDP1, AlphaScreen DNA substrate cleavage; Potency, µM (highest dose often 130 µM), for inactives: top-dose activity change, negative = inhibition, most hits filed as inhibitors; hit rate 0.28% among 350,000; also: potency is read from the fitted curve at half-maximal effect; % is scaled to controls: 0 for no effect and ±100 for the full control effect; nearly all actives have a fitted effect of over 40% in size
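E. coli-derived human Tdp1, 1 nM final. Cpd preinc 15 min RT; substrate 15 nM final, 5 min RT; AS bead mix 10 ug/ml final, 10 min RT. Signal loss = tyrosine-FITC cleavage. No-enzyme wells = max signal.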
miR-21 FLuc: miR-21 reporter, rising signal; Potency, µM (doses to about 38.3 µM), without a hit: at the top dose reporter change, positive = more light; HeLa miR-21 FLuc reporter, luciferase, 48 h; 340,000 tested, under 10 active; active = well fitted rising curve with a large enough effect; inconclusive = small, poorly fitted or top-dose-only effect; inactive = no such curve, though single readings can be large or run the other way;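 further: % of control where 0% means no effect; miR-21 action dims this reporter so a rising signal means less miR-21 action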
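Using DMEM plus 10% FBS, HeLa miR-21-FLuc cells are incubated with test compounds (final up to about 40uM) for 48 hours; firefly luciferase signal is then imaged following reagent-mediated lysis.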
TDP1 cell CPT: DT40-hTDP1 cell growth loss with CPT. chicken DT40 Tdp1-/-;hTDP1 cells + 20 nM CPT, ATP luminescence, 48 h. Potency, µM (series often up to 46.2 µM), inactives show at the top dose activity change, negative = growth inhibition, hits mostly inhibitors. hit rate 12% among 420,000; also: potency is read from the fitted curve at half-maximal effect; % is scaled to controls: 0 for no effect and ±100 for the full control effect; nearly all actives have a fitted effect of over 55% in size
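Cell growth measured by CellTiter-Glo luminescence after a minimum 48 h, 37 C compound exposure with 20 nM CPT in Tdp1-knockout DT40 cells stably expressing hTDP1, seeded 400/well; qHTS titration format.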
Starred values were filed as active, the others as inactive; ? = inconclusive; . = not tested or not shown; [ ] = remark or other dose. An excerpt weighted towards active compounds, which were near 16% of everything screened. Unless noted, calls follow the shape of the dose curve; as a rule, active = well fitted curve in the direction sought with a large enough effect; inconclusive = small, poorly fitted or top-dose-only effect, or another doubt; inactive = no such curve, though single readings can be large; an effect the other way counts as inactive or inconclusive.

1	CC1CCN(c2ccc(C(=O)OCC(=O)NCCN3C(=O)CSC3=O)cc2[N+](=O)[O-])CC1
2	COc1ccc(-c2oc3ccc(N4CCOCC4)cc3c2/C=C/c2ccc(OC)c(OC)c2)cc1
3	COc1ccc(-c2c(-c3ccsc3)oc3ccc(N4CCOCC4)cc23)cc1
4	O=C1NC(=S)N/C1=C/c1ccc2c(c1)OCO2
5	O=C1NC(=S)N/C1=C\c1ccc(N2CCOCC2)cc1
6	COc1cc2nc(NC(=O)c3ccccc3)sc(=O)c2cc1OC

Assay by compound	1	2	3	4	5	6
uPA surface inh	0%	3%	12%	?	-20%	-8%
TDP1 cell noCPT	?	?	16µM*	5.8µM*	?	-28%
TDP1 inh	7%	.	.	.	7%	.
miR-21 FLuc	5%	-13%	.	6%	-94%	-1%
TDP1 cell CPT	?	?	?	?	16µM*	-27%

7	CC1(c2ccccc2)NC(=O)N(CC(=O)N2CCc3ccccc32)C1=O (stereo unspecified)
8	Cc1cc(C)c2sc(N3CCN(C(=O)C4CC4)CC3)nc2c1
9	CCOC(=O)C1CCN(C(=O)C2CCN(c3nc4ccc(OC)cc4s3)CC2)CC1
10	Cc1cc(C)c2sc(N3CCN(C(=O)c4ccc(N(C)C)cc4)CC3)nc2c1
11	COc1cc(S(=O)(=O)n2ccc(C)n2)ccc1Cl
12	CC1(c2nnc(Cc3ccccc3)o2)CC(c2c(Cl)cccc2Cl)=NO1 (stereo unspecified)

Assay by compound	7	8	9	10	11	12
uPA surface inh	.	.	-3%	.	2%	-10%
TDP1 cell noCPT	5%	18µM*	16µM*	15µM*	?	-20%
TDP1 inh	.	-3%	2%	8%	.	.
miR-21 FLuc	.	-53%	2%	1%	-2%	.
TDP1 cell CPT	10%	29µM*	13µM*	?	-13%	-11%

13	Cc1ccc(-n2[nH]c(C)c(C=Nc3ccc(S(=O)(=O)Nc4nccs4)cc3)c2=O)c(C)c1
14	COC(=O)CCCC1=CC2=CC(=O)C(C)(OC(=O)c3cccs3)C(=O)C2=CN1CCc1c[nH]c2ccccc12 (stereo unspecified)
15	CCCCC1=CC2=CC(=O)C(C)(OC(=O)CC)C(=O)C2=CN1c1ccccc1 (stereo unspecified)
16	CCCCC1=CC2=CC(=O)C(C)(OC(=O)CC)C(=O)C2=CN1CCc1c[nH]c2ccccc12 (stereo unspecified)
17	CCCCC1=CC2=CC(=O)C(C)(OC(=O)CC)C(=O)C2=CN1Cc1ccccc1 (stereo unspecified)
18	CCCCC1=CC2=CC(=O)C(C)(OC(=O)CC)C(=O)C2=CN1Cc1ccco1 (stereo unspecified)

Assay by compound	13	14	15	16	17	18
uPA surface inh	.	6%	20%	10%	-2%	-14%
TDP1 cell noCPT	.	-22%	16µM*	16µM*	18µM*	-30%
TDP1 inh	8%	-9%[21 µM]	-4%[21 µM]	8%[21 µM]	15%[12.3 µM]	8%[12.3 µM]
miR-21 FLuc	-3%	2%	-6%	0%	0%	1%
TDP1 cell CPT	.	-3%	?	?	13µM*	?

19	CCCCC1=CC2=CC(=O)C(C)(OC(=O)CC)C(=O)C2=CN1c1ccncc1 (stereo unspecified)
20	Cc1cccc(Nc2nc3ccccc3n3c(N)nnc23)c1
21	COC(=O)c1ccc2nc(-c3ccc(OC)c(OC)c3)c(Cc3ccc(OC)cc3C)n2c1
22	COc1ccc(-c2nc3ccc(C)cn3c2Cc2ccsc2)cc1OC
23	COc1ccc(-c2nc3ccc(Cl)cn3c2CC(C)(C)C)cc1OC
24	COc1ccc(-c2nc3ccc(C)cn3c2CC2CCCCC2)cc1OC

Assay by compound	19	20	21	22	23	24
uPA surface inh	.	.	.	.	.	.
TDP1 cell noCPT	.	-30%	26µM*	7.3µM*	-55%	18µM*
TDP1 inh	7%[21 µM]	.	.	.	.	.
miR-21 FLuc	.	-46%	.	.	.	.
TDP1 cell CPT	.	6%	?	8.2µM*	?	18µM*

25	COC(=O)c1ccc(-c2nc(-c3ccc(OC)c(OC)c3)no2)cc1
26	COC(=O)c1ccc2nc(-c3cccc(Cl)c3)c(Cc3ccsc3)n2c1
27	COC(=O)c1ccc2nc(-c3ccccc3)c(Cc3ccsc3)n2c1
28	COC(=O)c1ccc2nc(-c3ccc(Cl)cc3)c(Cc3ccsc3)n2c1
29	COC(=O)c1ccc2nc(-c3ccc(OC)c(OC)c3)c(Cc3ccsc3)n2c1
30	OCCN1CCN(c2ncnc3c2ncn3[C@H]2CN(Cc3ccncc3)C[C@@H](CO)O2)CC1

Assay by compound	25	26	27	28	29	30
uPA surface inh	.	.	.	.	.	.
TDP1 cell noCPT	?	16µM*	?	12µM*	23µM*	-12%
TDP1 inh	4%	.	.	.	.	.
miR-21 FLuc	-10%	.	.	.	.	.
TDP1 cell CPT	1%	?	21µM*	?	16µM*	-2%

31	CN(C)CCN[C@H]1CCC2C3CC=C4C[C@@H](O)CC[C@]4(C)C3CC[C@@]21C (stereo partly specified)
32	CCOC(=O)CN[C@H]1CCC2C3CC=C4C[C@@H](O)CC[C@]4(C)C3CC[C@@]21C (stereo partly specified)
33	COc1cccc(-c2ccc3ncnc(NCc4cccnc4)c3c2)c1
34	CS(=O)(=O)Nc1cccc(-c2ccc3ncnc(NCc4cccnc4)c3c2)c1
35	c1ccc(CNc2ncnc3ccc(-c4cccnc4)cc23)cc1
36	Cc1ccc(-c2nnc(N(C)C(=O)c3ccncc3)s2)cn1

Assay by compound	31	32	33	34	35	36
uPA surface inh	-5%	-2%	4%	.	.	-4%
TDP1 cell noCPT	3.3µM*	?	?	?	16µM*	-10%
TDP1 inh	0%	1%	4%	8%	.	4%
miR-21 FLuc	.	.	.	.	.	-25%
TDP1 cell CPT	5.8µM*	?	12µM*	?	15µM*	-2%

Whole records, looked up by structure:
Entry for COc1cccc(-c2ccc3ncnc(NCc4cccnc4)c3c2)c1 → uPA surface inh = 4%; TDP1 cell noCPT = ?; TDP1 inh = 4%; miR-21 FLuc = .; TDP1 cell CPT = 12µM*
Entry for CN(C)CCN[C@H]1CCC2C3CC=C4C[C@@H](O)CC[C@]4(C)C3CC[C@@]21C (stereo partly specified) → uPA surface inh = -5%; TDP1 cell noCPT = 3.3µM*; TDP1 inh = 0%; miR-21 FLuc = .; TDP1 cell CPT = 5.8µM*

Further records:
37	Cc1ccc(C(C)C)cc1OCC(=O)NCCCn1ccnc1
38	COc1ccccc1OCC(=O)NCCCn1ccnc1
39	CC(=O)NC1=C(N(C)C2CCS(=O)(=O)C2)C(=O)c2ccccc2C1=O (stereo unspecified)
40	CN(C(=O)Nc1ccccc1)C1CCS(=O)(=O)C1 (stereo unspecified)
41	CC(=O)NC1=C(Nc2ccc(N(C)C)cc2)C(=O)c2ccccc2C1=O
42	CC(=O)c1cccc(NC(=O)C2CCCN(S(=O)(=O)c3cccc4cccnc34)C2)c1 (stereo unspecified)
43	O=C(Nc1nccs1)C1CCCN(S(=O)(=O)c2cccc3cccnc23)C1 (stereo unspecified)
44	O=C(Nc1ccccc1Cl)C1CCCN(S(=O)(=O)c2cccc3cccnc23)C1 (stereo unspecified)
45	O=C(Nc1nc2cc(Cl)ccc2s1)C1CCCN(S(=O)(=O)c2cccc3cccnc23)C1 (stereo unspecified)

Assay by compound	37	38	39	40	41	42	43	44	45
uPA surface inh	1%	7%	-18%	7%	-18%	3%	0%	-20%	13µM*
TDP1 cell noCPT	23µM*	-3%	9.2µM*	7%	?	?	15µM*	?	16µM*
TDP1 inh	1%	5%	-5%	-5%	9%	-3%	7%	5%	7%
miR-21 FLuc	.	-2%	26%	1%	9%	18%	19%	16%	-1%
TDP1 cell CPT	?	-1%	8.2µM*	2%	13µM*	21µM*	?	?	21µM*
